Assay outcomes from PubChem BioAssay.
In the library only some 1.3% were active in any assay of this set; here they are far more common.
E-sel inducer: induces E-selectin expression in human endothelial cells | P16581 | HUVEC E-selectin immunofluorescence imaging; normalized: neutral wells 0, TNF-alpha wells 100 | activation, % at 7.58 µM | 260,000 compounds, 0.37% hits | AID 686992;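 active = mean E-selectin-positive cell signal at least 10% of the positive control, reached in at least 60% of replicates, without over 20% cell loss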
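Assay system: HUVEC primary endothelial cells. Input: 3,000 HUVEC seeded per well. Doses: one compound dose added by pin transfer. Read-out basis: % PE-positive cells. Benchmarks: TNF-alpha high, DMSO low. Detection: immunofluorescence imaging. Buffer or medium: EGM-2, gelatin.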
ERAP1 HTS inh: inhibitors of human ERAP1 aminopeptidase. inhibition, % at 10.7 µM. AID 652197. 340,000 compounds, 0.15% hits. recombinant ERAP1, Leu-AMC fluorescence, 60 min;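 active = mean replicate inhibition of at least 30%, or all replicates individually reaching that 30% level; inactive = mean below 30% and not every replicate reaching it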
AF4-AF9 inh: blocks AF4 peptide binding to human AF9. P42568. AlphaScreen, biotin-AF4 peptide binding to FLAG-AF9. inhibition, % at 10 µM. 350,000 compounds, 0.47% hits. AID 651704;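 active = every replicate reaching a set inhibition limit, whatever the replicate mean, cut at about 25% in these data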
S100A4 MyoIIA: inhibitors of human S100A4 binding to myosin IIA peptide | AID 652163 | S100A4/TAMRA-MyoIIA peptide fluorescence polarization | inhibition, % at 10.7 µM | P26447 | 360,000 compounds, 0.14% hits;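 active = mean inhibition of at least 70% across replicates, with every replicate also reaching that level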
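Test system: S100A4 monomer protein. Medium: HEPES buffer with Ca2+, pH 7.2. Reagent: fluorescent myosin IIA peptide, 5 nM. Compound dosing: single-point compound testing. Timing: 5 min between mix addition and reading. Benchmarks: DMSO neutral and TFP positive wells.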
ARNT TACC3 PPI: disrupts binding between human ARNT and TACC3 | AlphaScreen His-ARNT PAS-B/GST-TACC3 binding, luminescence; TACC3 fragment carries E629A point mutation | inhibition, % at 9.99 µM | 390,000 compounds, 0.66% hits;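 active = mean inhibition of replicates at least 50% and at least half of replicates each reaching 50%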
UUG fidelity: modulators of start codon recognition fidelity in yeast; activity score, % at 18.7 µM; actives 0.13% (n = 350,000); S. cerevisiae UUG-firefly luciferase reporter, luminescence/redox ratio;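 active = replicate mean at a twofold rise or more, about +100% in these data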;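 note: firefly luciferase made from a UUG start codon reports start codon fidelity; reporter light over untreated wells divided by growth signal over untreated wells; some hits fall short of that in this replicate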
A number is an active result; – = inactive; · = not tested or not shown; ! = not confirmed by another sample.

SMILES | E-sel inducer | ERAP1 HTS inh | AF4-AF9 inh | S100A4 MyoIIA | ARNT TACC3 PPI | UUG fidelity
C#CCOCCOCCOCCNc1nc(N2CCN(C(=O)[C@H](CCCCN)n3cc(CN)nn3)CC2)nc(N2CCN(C(=O)[C@H](CCC(=O)O)n3cc([C@@H](N)CCCCN)nn3)CC2)n1 | – | · | 74 | – | – | –
C#CCOCCOCCOCCNc1nc(N2CCN(C(=O)CCCCCCCCCCNC(=O)[C@H](CCCCN)n3cc(CCO)nn3)CC2)nc(N2CCN(C(=O)CCCCCCCCCCNC(=O)[C@H](CCCCN)n3cc(CCCC(=O)O)nn3)CC2)n1 | – | – | 55 | – | – | –
C/C=C/c1ccc([C@@H]2[C@H](CO)N(C(=O)CC)C23CN(S(C)(=O)=O)C3)cc1 | – | – | – | – | · | ·
CNc1ccccc1C(C)(C)c1cc(-c2cccc(OC)c2)no1 | 46 | – | – | – | – | ·
COc1ccc2c3c(n(C)c2c1)[C@H](CO)N(Cc1nccs1)CC31CCN(C(C)=O)CC1 | – | · | – | · | · | ·
C[C@@H]1CCCCO[C@@H](CN(C)C(=O)Nc2ccccc2)[C@@H](C)CN([C@@H](C)CO)C(=O)c2cc(NC(=O)Nc3ccc(C(F)(F)F)cc3)ccc2O1 | – | – | 35 | – | · | ·
C[C@H](CO)N1C[C@H](C)[C@H](CN(C)C(=O)Nc2ccccc2)Oc2ccc(NC(=O)Nc3ccc(C(F)(F)F)cc3)cc2C1=O | – | – | – | – | – | –
C[C@@H]1CN([C@@H](C)CO)C(=O)c2cc(NC(=O)Nc3ccccc3)ccc2O[C@@H]1CN(C)C(=O)Nc1ccc(C(F)(F)F)cc1 | 51 | – | – | – | – | –
C[C@@H]1CCCCO[C@H](CN(C)C(=O)Nc2ccc(C(F)(F)F)cc2)[C@H](C)CN([C@@H](C)CO)C(=O)c2cc(NC(=O)Nc3ccccc3)ccc2O1 | – | – | – | – | – | –
C[C@H]1CN([C@@H](C)CO)C(=O)c2cc(NC(=O)Nc3ccccc3)ccc2O[C@@H]1CN(C)C(=O)Nc1ccc(C(F)(F)F)cc1 | 40 | – | – | – | – | –
C[C@@H]1CN([C@H](C)CO)C(=O)c2cc(NC(=O)Nc3ccccc3)ccc2O[C@@H]1CN(C)C(=O)Nc1ccc(C(F)(F)F)cc1 | – | – | – | – | – | –
C[C@@H]1CN([C@H](C)CO)C(=O)c2cccc(NC(=O)Nc3ccc4c(c3)OCO4)c2O[C@H]1CN(C)C(=O)Nc1ccc(C(F)(F)F)cc1 | 38 | – | – | – | – | –
C[C@H](CO)N1C[C@H](C)[C@H](CN(C)C(=O)Nc2ccc3c(c2)OCO3)Oc2c(NC(=O)Nc3ccc(C(F)(F)F)cc3)cccc2C1=O | – | · | · | · | – | –
C[C@H](NC(=O)C[C@H]1C[C@H]2c3cc(NC(=O)Nc4ccc(C(F)(F)F)cc4)ccc3O[C@H]2[C@@H](CO)O1)c1ccccc1 | – | – | – | – | – | ·
C[C@@H]1CCCCO[C@@H](CN(C)C(=O)C2CCCCC2)[C@@H](C)CN([C@H](C)CO)C(=O)c2cc(NC(=O)Nc3cccc4ccccc34)ccc2O1 | – | – | – | 108 | – | –
Cc1cccc(C)c1NC(=O)CSc1nnc(NC(=O)c2ccccc2C(=O)O)s1 | – | 45 | – | – | – | –
C[C@@H]1CCCCO[C@H](CN(C)S(=O)(=O)c2ccc(F)cc2)[C@H](C)CN([C@@H](C)CO)C(=O)c2cc(NC(=O)Nc3cccc4ccccc34)ccc2O1 | – | – | – | – | – | –
C[C@H]1CN([C@@H](C)CO)C(=O)c2cc(C3=CCCCC3)cnc2O[C@H]1CN(C)C(=O)NC1CCCC1 | – | – | – | – | – | –
OCCCn1c(-c2ccccc2)csc1=Nc1ccccc1 | · | – | 45 | – | – | –
CC(C)NC(=O)N(C)C[C@H]1OCCCC[C@H](C)Oc2ccc(NC(=O)c3ccccc3)cc2C(=O)N([C@@H](C)CO)C[C@H]1C | – | – | – | – | – | ·
COc1cc(C)c2sc3ccccc3c(=O)c2c1NCCN(C)C | – | – | 45 | – | · | –
CN(C)CCNc1cccc2sc3ccc(O)cc3c(=O)c12 | · | – | 38 | – | · | ·
Cc1ccc(NCCN(C)C)c2c(=O)c3cc(O)ccc3sc12 | – | 64 | 39 | – | – | ·
C[C@@H]1CN([C@H](C)CO)C(=O)c2cccc(NS(=O)(=O)c3ccccc3)c2O[C@H]1CN(C)Cc1ccc(Oc2ccccc2)cc1 | – | – | – | – | – | –
S=C(Nc1ccc(Cl)c(Cl)c1)NC1CCCCC1 | · | – | – | – | – | ·
SMILES | E-sel inducer | ERAP1 HTS inh | AF4-AF9 inh | S100A4 MyoIIA | ARNT TACC3 PPI | UUG fidelity
S=C(Nc1ccc2nsnc2c1)NC1CCCCC1 | – | – | – | – | 25 | ·
CC/C(=C(\c1ccccc1)c1ccc(OCCN(C)C)cc1)c1ccccc1 | – | – | 30! | – | – | –
Cc1nnc(NS(=O)(=O)c2ccc(N=Nc3ccc(N)nc3N)cc2)s1 | – | – | – | – | 57 | –
C[C@H]1CN([C@@H](C)CO)S(=O)(=O)c2ccc(Br)cc2O[C@@H]1CN(C)C | – | – | – | – | – | –
CCn1c(C)[n+](CC)c2ccc(S(=O)(=O)NC)cc21 | · | 59 | – | – | – | ·
CCn1c(C)[n+](CC)c2ccc(S(=O)(=O)N(C)C)cc21 | · | 39 | – | – | – | –
CCOC(=O)c1ccc2c(c1)n(CC)c(C)[n+]2CC | · | – | – | – | – | ·
CCn1c(C)[n+](CC)c2ccc(C(=O)N(C)c3ccccc3)cc21 | · | 71 | – | – | – | ·
Cc1n(C)c2cc(Cl)ccc2[n+]1Cc1ccccc1 | · | – | – | – | – | ·
CC[n+]1c(C)n(C)c2cc(S(=O)(=O)N(C)C)ccc21 | · | 51 | – | – | – | ·
CCn1c(C)[n+](CCCS(=O)(=O)[O-])c2cc(Cl)c(Cl)cc21 | · | · | · | · | – | –
CCNC(=O)C[C@H]1CC[C@@H]2[C@@H](COc3ccc(NC(=O)C4CCOCC4)cc3C(=O)N2C)O1 | – | – | – | – | – | –
C[C@@H]1CN([C@H](C)CO)C(=O)c2cc(-c3cccc(F)c3)cnc2O[C@@H]1CN(C)C(=O)c1cnccn1 | – | – | – | – | – | –
CN(C)C1(CNC(=O)C2CCN(S(=O)(=O)c3cc(Cl)ccc3Cl)CC2)CCCCC1 | 70 | – | – | – | – | –
C[C@H](CO)N1C[C@H](C)[C@H](CN(C)S(=O)(=O)c2ccc(Cl)cc2)OCc2ccccc2-c2ccccc2C1=O | – | – | – | – | – | ·
COc1cccc(S(=O)(=O)Nc2ccc3c(c2)[C@H]2C[C@@H](CC(=O)NCc4cccc(F)c4)O[C@@H](CO)[C@H]2O3)c1 | – | – | – | – | – | –
C[C@@H]1CN([C@@H](C)CO)C(=O)c2c(c3ccccc3n2C)-c2ccccc2CO[C@@H]1CN(C)Cc1ccc2c(c1)OCO2 | – | – | – | – | · | ·
